# Laboratory results published in patent US8927500B2, “Peptidomimetic macrocycles” (Aileron Therapeutics, Inc., priority 2012, dated 2015).
# Experiments:
# MDMX = target: T1, MDMX (Homo sapiens, UniProt O15151); assay: Competitive fluorescence polarization assay for MDMX; assay type: binding; conditions: competitive FP assay, read-out: Ki (MDMX)
# T1 sequence (O15151 1-125): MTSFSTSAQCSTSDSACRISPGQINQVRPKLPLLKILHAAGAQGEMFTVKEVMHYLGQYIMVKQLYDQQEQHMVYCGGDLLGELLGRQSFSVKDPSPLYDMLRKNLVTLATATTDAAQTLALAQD
# p21 = assay: P21 ELISA assay in SJSA1 cells; assay type: cell-based, Human; conditions: for p21 0.3 uM: 0.3 uM peptide; for p21 1 uM: 1 uM peptide; for p21 3 uM: 3 uM peptide; for p21 10 uM: 10 uM peptide; for p21 30 uM: 30 uM peptide
# RKO cells = assay: Cell viability assay (MTT), RKO; conditions: read-out: RKO EC50 (72 h)
structure (smiles),measurement,setting,value
"CC(=O)N[C@@H](CC(C)C)C(=O)N[C@H](C(=O)N[C@@H](Cc1ccccc1)C(=O)N[C@]1(C)CCCCCCC=CCCC[C@@](C)(C(=O)N[C@@H](C)C(=O)N[C@@H](C)C(=O)N[C@@H](C)C(=O)N[C@@H](C)C(=O)NC(C)(C)C(=O)N[C@H](C)C(N)=O)NC(=O)[C@H](CC(C)C)NC(=O)[C@H](CCC(N)=O)NC(=O)[C@H](C)NC(=O)[C@H](Cc2c[nH]c3ccccc23)NC(=O)[C@H](Cc2ccc(O)cc2)NC(=O)[C@H](CCC(=O)O)NC1=O)[C@@H](C)O (single isomer, unassigned) [compound 565]",Ki,MDMX,0.01 to 0.1 µM
"CC(=O)N[C@@H](C)C(=O)N[C@@H](C)C(=O)N[C@@H](CC(C)C)C(=O)N[C@H](C(=O)N[C@@H](Cc1ccccc1)C(=O)N[C@]1(C)CCCCCCC=CCCC[C@@](C)(C(=O)N[C@@H](CO)C(=O)N[C@@H](C)C(=O)N[C@@H](C)C(=O)N[C@@H](C)C(=O)N[C@H](C)C(N)=O)NC(=O)[C@H](CC2CCC2)NC(=O)[C@H](CCC(N)=O)NC(=O)[C@H](C)NC(=O)[C@H](Cc2c[nH]c3ccccc23)NC(=O)[C@H](Cc2ccc(O)cc2)NC(=O)[C@H](CCC(=O)O)NC1=O)[C@@H](C)O (single isomer, unassigned) [compound 358]",p21 0.3 uM,p21,252
same,p21 1 uM,p21,321
same,p21 3 uM,p21,434
same,p21 10 uM,p21,609
same,p21 30 uM,p21,1192
same,EC50,RKO cells,15 to 30 µM
"CC(=O)N[C@@H](CCC(=O)O)C(=O)N[C@H](C(=O)N[C@@H](Cc1ccccc1)C(=O)N[C@]1(C)CCCCCCC=CCCC[C@@](C)(C(=O)N[C@@H](C)C(=O)N[C@@H](C)C(=O)N[C@@H](C)C(=O)N[C@@H](C)C(=O)N[C@@H](C)C(=O)N[C@H](C)C(N)=O)NC(=O)[C@H](CC(C)C)NC(=O)[C@H](CCC(N)=O)NC(=O)[C@H](C)NC(=O)[C@H](Cc2c[nH]c3ccccc23)NC(=O)[C@H](Cc2ccc(O)cc2)NC(=O)[C@H](CCC(=O)O)NC1=O)[C@@H](C)O (single isomer, unassigned) [compound 341]",p21 0.3 uM,p21,1325.62
same,p21 1 uM,p21,1873
same,p21 3 uM,p21,2039.75
same,p21 10 uM,p21,2360.75
same,p21 30 uM,p21,2574
same,EC50,RKO cells,15 to 30 µM
"CC(=O)N[C@@H](C)C(=O)N[C@@H](CC(C)C)C(=O)N[C@H](C(=O)N[C@@H](Cc1ccccc1)C(=O)N[C@]1(C)CCCCCCC=CCCC[C@@](C)(C(=O)N[C@@H](CO)C(=O)N[C@@H](C)C(=O)N[C@@H](C)C(=O)N[C@H](C)C(N)=O)NC(=O)[C@H](CC2CCC2)NC(=O)[C@H](CCC(N)=O)NC(=O)[C@H](C)NC(=O)[C@H](Cc2c[nH]c3ccccc23)NC(=O)[C@H](Cc2ccc(O)cc2)NC(=O)[C@H](CCC(=O)O)NC1=O)[C@@H](C)O (single isomer, unassigned) [compound 355]",p21 0.3 uM,p21,191
same,p21 1 uM,p21,688
same,p21 3 uM,p21,1122
same,p21 10 uM,p21,1223
same,p21 30 uM,p21,1519
same,EC50,RKO cells,15 to 30 µM
"CC(=O)N[C@@H](C)C(=O)N[C@@H](C)C(=O)N[C@@H](CC(C)C)C(=O)N[C@H](C(=O)N[C@@H](Cc1ccccc1)C(=O)N[C@]1(C)CCCCCCC=CCCC[C@@](C)(C(=O)N[C@@H](CO)C(=O)N[C@@H](C)C(=O)N[C@@H](C)C(=O)N[C@@H](C)C(=O)N[C@H](C)C(N)=O)NC(=O)[C@H](CC2CCC2)NC(=O)[C@H](CCC(N)=O)NC(=O)[C@H](C)NC(=O)[C@H](Cc2c[nH]c3ccccc23)NC(=O)[C@H](Cc2ccc(O)cc2)NC(=O)[C@H](CCC(=O)O)NC1=O)[C@@H](C)O (single isomer, unassigned) [compound 359]",p21 0.3 uM,p21,1163.29
same,p21 1 uM,p21,1508.79
same,p21 3 uM,p21,1780.29
same,p21 10 uM,p21,2067.67
same,p21 30 uM,p21,2479.29
same,EC50,RKO cells,15 to 30 µM
"CC(=O)N[C@@H](C)C(=O)N[C@@H](CC(C)C)C(=O)N[C@H](C(=O)N[C@@H](Cc1ccccc1)C(=O)N[C@]1(C)CCCCCCC=CCCC[C@@](C)(C(=O)N[C@@H](CO)C(=O)N[C@@H](C)C(=O)N[C@@H](C)C(=O)N[C@@H](C)C(=O)N[C@H](C)C(N)=O)NC(=O)[C@H](CC2CCC2)NC(=O)[C@H](CCC(N)=O)NC(=O)[C@H](C)NC(=O)[C@H](Cc2c[nH]c3ccccc23)NC(=O)[C@H](Cc2ccc(O)cc2)NC(=O)[C@H](CCC(=O)O)NC1=O)[C@@H](C)O (single isomer, unassigned) [compound 357]",p21 0.3 uM,p21,539
same,p21 1 uM,p21,777
same,p21 3 uM,p21,1080
same,p21 10 uM,p21,1362
same,p21 30 uM,p21,1177
same,EC50,RKO cells,< 5 µM
CC(=O)N[C@@H](CC(C)C)C(=O)N[C@H](C(=O)N[C@@H](Cc1ccccc1)C(=O)N[C@]1(C)CCCCCC/C=C/CCC[C@@](C)(C(=O)N[C@@H](C)C(=O)N[C@@H](C)C(=O)N[C@@H](C)C(=O)N[C@@H](C)C(=O)N[C@@H](C)C(=O)N[C@H](C)C(N)=O)NC(=O)[C@H](CC2CCC2)NC(=O)[C@H](CCC(N)=O)NC(=O)[C@H](CO)NC(=O)[C@H](Cc2c[nH]c3ccccc23)NC(=O)[C@H](Cc2ccc(O)cc2)NC(=O)[C@H](CCC(=O)O)NC1=O)[C@@H](C)O [compound 351],p21 0.3 uM,p21,1350.67
same,p21 1 uM,p21,1710.67
same,p21 3 uM,p21,2030.92
same,p21 10 uM,p21,2190.67
same,p21 30 uM,p21,2668.54
same,EC50,RKO cells,5 to 15 µM
CC(=O)N[C@@H](CC(C)C)C(=O)N[C@H](C(=O)N[C@@H](Cc1ccccc1)C(=O)N[C@]1(C)CCCCCCC=CCCC[C@@](C)(C(=O)N[C@@H](CO)C(=O)N[C@@H](C)C(=O)N[C@@H](CC(C)C)C(N)=O)NC(=O)[C@H](CC(C)C)NC(=O)[C@H](CCC(N)=O)NC(=O)[C@H](C)NC(=O)[C@H](Cc2c[nH]c3ccccc23)NC(=O)[C@H](Cc2ccc(O)cc2)NC(=O)[C@H](C)NC1=O)[C@@H](C)O [compound 4],p21 3 uM,p21,317
same,p21 10 uM,p21,3049
same,p21 30 uM,p21,3257
same,EC50,RKO cells,< 5 µM
"CC(=O)N[C@@H](CC(C)C)C(=O)N[C@H](C(=O)N[C@@H](Cc1ccccc1)C(=O)N[C@]1(C)CCCCCCC=CCCC[C@@](C)(C(=O)N[C@@H](C)C(=O)N[C@H](C(=O)NCC(N)=O)C(C)C)NC(=O)[C@H](CC(C)C)NC(=O)[C@H](CCC(N)=O)NC(=O)[C@H](C)NC(=O)[C@H](Cc2c[nH]c3ccccc23)NC(=O)[C@H](Cc2ccc(O)cc2)NC(=O)[C@H](C)NC1=O)[C@@H](C)O (single isomer, unassigned) [compound 109]",p21 1 uM,p21,161
same,p21 3 uM,p21,445
same,p21 10 uM,p21,1221
same,p21 30 uM,p21,1680
same,EC50,RKO cells,< 5 µM
